Measured values from patent publication US9463252B2, “Auristatin drug linker conjugates” (priority 2008, dated 2016).

Experiment: Tolerability (MTD) of conjugates in mice
Type: in vivo, mouse
Details: h1F6 conjugates; for tolerability at 100 mg/kg dose (in words): single dose 100 mg/kg
Method: The tolerability, measured as maximum tolerated dose (MTD), was determined in mice based on animals' weight loss after treatment. Animals were usually monitored for 14 days. A conjugate is considered to be tolerated at a determined dose if single iv treatment at such dose results in a transient weight loss of no more than 20% of initial body weight of animals and no other signs of toxicity are observed. […] AF-Met-(D)Lys and AF-Asn-(D)Lys conjugates were tolerated at doses as high as 100 mg/kg (FIG. 7). Corresponding conjugates of auristatins containing Methionine (AM) and Tryptophan (AW) at the C-terminal position of the drug were tolerated even better, up to 150 mg/kg (FIG. 8). […] Thus, the Auristatin-Dipeptide Drug Linkers provide ADCs with significant therapeutic window for therapeutic treatment (e.g., cancer).

Substance | tolerability at 100 mg/kg dose (in words) | tolerability at 50 mg/kg dose (in words) (single dose 50 mg/kg, FIG. 15)
MMAF-Methionine-(D)Lysine-diaminoethane-propionyl maleimide [MMAF-Met-(D)Lys] | animal loss | –
AF-Methionine-diaminoethane-propionyl maleimide | – | toxic
AF-Methionine-(D)Lysine-diaminoethane-propionyl maleimide [AF-Met-(D)Lys] | tolerated | –
